# Assay results taken from publication PMC7293934 (Neuropharmacology, 2020).
# Chains of the proteins cited; added tags and fusions are not shown. Residues count along the entry.
# UniProt Q00961, 20-1237: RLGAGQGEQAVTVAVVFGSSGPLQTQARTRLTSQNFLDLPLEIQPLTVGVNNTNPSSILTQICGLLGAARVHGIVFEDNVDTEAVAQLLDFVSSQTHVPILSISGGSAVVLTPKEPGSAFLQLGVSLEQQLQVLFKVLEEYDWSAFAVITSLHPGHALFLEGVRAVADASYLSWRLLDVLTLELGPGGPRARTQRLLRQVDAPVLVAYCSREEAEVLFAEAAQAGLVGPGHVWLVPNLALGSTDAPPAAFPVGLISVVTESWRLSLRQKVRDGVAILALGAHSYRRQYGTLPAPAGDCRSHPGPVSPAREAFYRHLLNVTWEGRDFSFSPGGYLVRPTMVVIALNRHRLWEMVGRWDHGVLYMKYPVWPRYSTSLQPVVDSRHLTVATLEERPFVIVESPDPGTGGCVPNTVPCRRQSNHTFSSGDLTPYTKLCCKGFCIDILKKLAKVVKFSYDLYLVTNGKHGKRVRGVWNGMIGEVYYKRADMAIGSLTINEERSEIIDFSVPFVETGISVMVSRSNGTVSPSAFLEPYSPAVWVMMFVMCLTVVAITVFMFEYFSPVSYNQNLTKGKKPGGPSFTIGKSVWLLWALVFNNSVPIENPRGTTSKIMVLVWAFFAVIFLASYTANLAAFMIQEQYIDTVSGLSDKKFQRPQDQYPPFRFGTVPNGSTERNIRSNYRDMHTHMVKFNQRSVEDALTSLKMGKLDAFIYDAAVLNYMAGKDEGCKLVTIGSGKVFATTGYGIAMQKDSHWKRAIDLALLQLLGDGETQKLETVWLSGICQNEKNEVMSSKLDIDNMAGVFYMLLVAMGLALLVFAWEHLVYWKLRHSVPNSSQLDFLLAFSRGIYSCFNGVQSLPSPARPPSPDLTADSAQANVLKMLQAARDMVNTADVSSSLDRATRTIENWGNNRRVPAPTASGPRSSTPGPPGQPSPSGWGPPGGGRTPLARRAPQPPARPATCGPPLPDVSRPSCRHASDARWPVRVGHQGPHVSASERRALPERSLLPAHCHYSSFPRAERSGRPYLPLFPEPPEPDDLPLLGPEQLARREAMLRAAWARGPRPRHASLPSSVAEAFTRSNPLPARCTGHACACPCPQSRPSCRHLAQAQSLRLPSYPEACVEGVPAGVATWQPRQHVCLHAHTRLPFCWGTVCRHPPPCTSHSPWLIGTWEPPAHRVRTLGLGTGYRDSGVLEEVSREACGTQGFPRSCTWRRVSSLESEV
# UniProt Q62645, 28-1323: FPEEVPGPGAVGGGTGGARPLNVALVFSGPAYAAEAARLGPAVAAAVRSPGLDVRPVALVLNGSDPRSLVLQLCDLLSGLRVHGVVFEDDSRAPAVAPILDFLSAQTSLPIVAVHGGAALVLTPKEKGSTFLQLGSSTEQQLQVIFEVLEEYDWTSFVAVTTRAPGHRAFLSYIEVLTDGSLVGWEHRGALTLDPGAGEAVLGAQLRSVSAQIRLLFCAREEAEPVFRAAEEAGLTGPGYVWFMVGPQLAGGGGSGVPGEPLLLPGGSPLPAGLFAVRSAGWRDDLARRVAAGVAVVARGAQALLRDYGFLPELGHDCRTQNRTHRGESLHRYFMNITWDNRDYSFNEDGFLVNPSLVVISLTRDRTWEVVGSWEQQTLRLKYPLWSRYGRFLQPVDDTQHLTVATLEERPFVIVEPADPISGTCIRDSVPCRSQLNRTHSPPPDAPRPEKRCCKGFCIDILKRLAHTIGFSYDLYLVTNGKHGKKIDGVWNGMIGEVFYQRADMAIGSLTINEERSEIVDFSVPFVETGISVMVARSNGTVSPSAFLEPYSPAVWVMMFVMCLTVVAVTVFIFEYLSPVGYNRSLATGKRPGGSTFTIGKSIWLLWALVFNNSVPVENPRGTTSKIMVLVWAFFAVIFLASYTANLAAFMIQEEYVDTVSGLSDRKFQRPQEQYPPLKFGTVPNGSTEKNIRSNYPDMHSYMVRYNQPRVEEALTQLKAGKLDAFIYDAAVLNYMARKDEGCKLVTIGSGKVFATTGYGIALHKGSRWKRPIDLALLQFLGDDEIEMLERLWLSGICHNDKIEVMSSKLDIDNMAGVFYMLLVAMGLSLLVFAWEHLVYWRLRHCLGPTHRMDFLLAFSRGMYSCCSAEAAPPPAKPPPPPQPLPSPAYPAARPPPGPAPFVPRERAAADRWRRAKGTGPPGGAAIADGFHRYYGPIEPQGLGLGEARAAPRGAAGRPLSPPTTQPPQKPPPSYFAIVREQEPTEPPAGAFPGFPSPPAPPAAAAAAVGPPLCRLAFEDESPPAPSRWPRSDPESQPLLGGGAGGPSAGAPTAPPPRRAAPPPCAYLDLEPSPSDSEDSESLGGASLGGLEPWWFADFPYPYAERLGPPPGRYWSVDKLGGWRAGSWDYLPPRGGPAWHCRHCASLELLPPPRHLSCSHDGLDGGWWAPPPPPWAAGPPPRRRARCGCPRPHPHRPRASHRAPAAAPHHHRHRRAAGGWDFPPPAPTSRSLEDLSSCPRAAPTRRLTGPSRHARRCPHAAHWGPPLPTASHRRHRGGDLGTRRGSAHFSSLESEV
# Key:
# GluN1/2C = GluN1/2C (Rattus norvegicus, UniProt P35439+Q00961); type: cell-based; conditions: control (no modulator); continuous 100 μM glutamate
# GluN1/2D = GluN1/2D (Rattus norvegicus, UniProt P35439+Q62645); type: cell-based; conditions: control (no modulator); continuous 100 μM glutamate
compound,measurement,setting,value
"NCC(=O)O [glycine, reference compound]",nH (glycine),GluN1/2C,1.6
same,nH (glycine),GluN1/2D,1.5 and 1.8

# Where “and” joins values, the source holds several entries; their conditions need not be identical. Identical values can stand only once.
